Experimental findings from PubChem BioAssay AID504558 (Broad Institute, 2011) are described below.

The list shows a part of the results, in another mix than the full data. Some salts and complexes are drawn in separate pieces, as the source files them; their charges need not balance. Activity calls are given as the source filed them. No stated cut-off is given here; in the data, active means inhibition above about 41%; inconclusive means no clear call, values can overlap the other calls; inactive means below that.

A short description of the test: blockers of LMP1-induced NF-kB reporter signal – cell-based, luminescence, single point, primary screen (AID 504558).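 Further: 0% = neutral control wells and 100% = reference inhibitor control.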 The following applies: LMP1-induced NF-kappaB luciferase reporter cells, at 12.5 µM, stronger effect = higher value. A general note: In a reporter assay the amount or activity of a reporter protein is the signal.
For the compound `Cc1cc(C)cc(OP(C)(N)=O)c1` (configuration not stated), the inhibition is inactive: -5.86%.

Turning to `COc1ccc(OP(C)(=O)Nc2cccc(F)c2)cc1` (configuration not stated), the inhibition was inactive: -3.25%.

In the case of `COc1ccccc1OP(C)(=O)Nc1cc(Cl)ccc1C` (configuration not stated), the inhibition was inactive: -2.56%.

For `Cc1ccc(NP(C)(=O)Oc2ccccc2)c(C)c1` (configuration not stated), the inhibition is inactive: 10.4%.

For `COc1ccccc1OP(C)(=O)Nc1ccc(C)cc1` (configuration not stated), the inhibition is inactive: -1.18%.

Take `CCOC(=O)c1ccc(NP(C)(=O)Oc2ccccc2)cc1` (configuration not stated): the inhibition is inactive: -4.85%.

`O=[N+]([O-])c1ccc2c(c1)C=Nc1ccccc1O2`: the inhibition was inactive: 10.4%.

Regarding `Cc1cccc(C)c1OP(C)(N)=O` (configuration not stated), the inhibition was inactive: -12.2%.

In the case of `CC(C)(C)c1ccc(OP(C)(=O)Nc2ccc(SC(F)(F)F)cc2)cc1` (configuration not stated), the inhibition is inactive: 2.86%.

As for `O=[N+]([O-])c1cc([N+](=O)[O-])c(Nc2cccnc2)c([N+](=O)[O-])c1`, the inhibition is inactive: -9.25%.

For the compound `CCN(CC)CCCOC(=O)C(O)(c1ccccc1)c1ccccc1`, the inhibition is inactive: -10.8%.

Regarding `CP(=O)(Nc1ccccn1)Oc1ccc(Cl)cc1` (configuration not stated), the inhibition was inactive: -1.73%.

For the compound `CCOC(=O)c1ccc(NP(C)(=O)Oc2ccc(OC)cc2)cc1` (configuration not stated), the inhibition was inactive: -7.42%.

On to `CCOP(C)(=S)SCC(=O)NC(C)C(=O)O` (configuration not stated), for which the inhibition was inactive: -6.94%.

In the case of `Cc1cc(C)cc(OP(C)(=O)Nc2ccc(SC(F)(F)F)cc2)c1` (configuration not stated), the inhibition is inactive: 4.46%.

As for `CP(=O)(NC(=O)Nc1ccccc1)Oc1ccccc1` (configuration not stated), the inhibition was inactive: 0.916%.

Regarding `CCc1ccc(OP(C)(=O)N2CCN(c3ccc([N+](=O)[O-])cc3)CC2)cc1` (configuration not stated), the inhibition is inactive: 15.4%.

Take `CP(=O)(Oc1ccccc1)OC(c1ccccc1)C(F)(F)F` (configuration not stated): the inhibition is inactive: -2.61%.

Turning to `Cc1cccc(C)c1OP(C)(=O)Nc1ccc(SC(F)(F)F)cc1` (configuration not stated), the inhibition is inactive: -4.35%.

As to `Cc1ccc(Nc2c([N+](=O)[O-])cc([N+](=O)[O-])cc2[N+](=O)[O-])cc1`, the inhibition is inactive: -2.37%.

In the case of `CP(=O)(Nc1ccccc1Br)Oc1ccccc1` (configuration not stated), the inhibition was inactive: 1.17%.

As for `COc1ccccc1OP(C)(=O)Nc1ccccc1` (configuration not stated), the inhibition was inactive: 1.7%.

Consider `CP(=S)(Nn1cnnc1)Oc1ccccc1` (configuration not stated), for which the inhibition was inactive: -7.63%.

`CCCOc1ccc(NP(C)(=O)Oc2ccc(Cl)cc2)cc1` (configuration not stated): the inhibition is inactive: 6.26%.

Turning to `CP(=O)(Nc1ccc(SC(F)(F)F)cc1)Oc1ccccc1` (configuration not stated), the inhibition is inactive: 7.17%.

Turning to `CN1CCCCC1COC(=O)C1(O)c2ccccc2CCc2ccccc21` (configuration not stated), the inhibition is inactive: 4.47%.

Regarding `COc1ccccc1OP(C)(=O)Nc1c(C)cccc1C` (configuration not stated), the inhibition was inactive: -12.4%.

`CCOC(=O)C(CC)C1=NC(C)(C)Cc2ccccc21.O=[N+]([O-])c1cc([N+](=O)[O-])c(O)c([N+](=O)[O-])c1` (configuration not stated): the inhibition was inactive: -1.64%.

`CC1=C2N=C(C=C3N=C(C(C)=C4[N-][C@@](C)([C@@H]5N=C1[C@](C)(CCC(=O)NC[C@@H](C)OP(=O)([O-])O[C@H]1[C@@H](O)[C@@H](n6cnc7cc(C)c(C)cc76)O[C@@H]1CO)[C@H]5CC(N)=O)[C@@](C)(CC(N)=O)[C@@H]4CCC(N)=O)[C@@](C)(CC(N)=O)[C@@H]3CCC(N)=O)C(C)(C)[C@@H]2CCC(N)=O.[C-]#N.[Co+3]`: the inhibition was inactive: -5.13%.

`O=[N+]([O-])c1cc([N+](=O)[O-])c(Nc2nnnn2CCO)c([N+](=O)[O-])c1`: the inhibition is inactive: -1.49%.

`Cc1nc2ccc3ccccc3c2s1.O=[N+]([O-])c1cc([N+](=O)[O-])c(O)c([N+](=O)[O-])c1`: the inhibition was inactive: 0.917%.

In the case of `O=[N+]([O-])c1cc([N+](=O)[O-])c(-c2cnn(-c3ccccc3)c2)c([N+](=O)[O-])c1`, the inhibition is inactive: -14.2%.

For `O=[N+]([O-])c1cc([N+](=O)[O-])c(-n2nnc3ccccc32)c([N+](=O)[O-])c1`, the inhibition is inactive: 3.02%.

Turning to `Cc1ccc(C)c(NP(C)(=O)Oc2ccccc2)c1` (configuration not stated), the inhibition is inactive: -1.93%.

Consider `Cc1cc(C)cc(OP(C)(=O)Nc2ccccn2)c1` (configuration not stated), for which the inhibition is inactive: 6.35%.

As for `CP(=O)(Nc1cccc(Br)c1)Oc1ccccc1` (configuration not stated), the inhibition is inactive: -4.34%.

`CCOC(=O)c1ccc(NP(C)(=O)Oc2cc(C)cc(C)c2)cc1` (configuration not stated): the inhibition was active: 69.1%.

As for `Cc1cc(C)cc(OP(C)(=O)Nc2ccc(C)cc2C)c1` (configuration not stated), the inhibition was inactive: -10.9%.

Consider `COc1ccccc1OP(C)(=O)Nc1cccc(Br)c1` (configuration not stated), for which the inhibition was inactive: 3.84%.

Consider `CC1=NCCc2c1[nH]c1ccccc21.O=[N+]([O-])c1cc([N+](=O)[O-])c(O)c([N+](=O)[O-])c1`, for which the inhibition is inactive: -8.55%.

With `O=C(O)c1cccc(Nc2c([N+](=O)[O-])cc([N+](=O)[O-])cc2[N+](=O)[O-])c1`, the inhibition was inactive: -6.29%.

Turning to `CP(=O)(Nc1ccccc1)Oc1ccc(F)cc1` (configuration not stated), the inhibition was inactive: -5.06%.

Consider `O=[N+]([O-])c1cc([N+](=O)[O-])c(OC2CCCCC2O)c([N+](=O)[O-])c1` (configuration not stated), for which the inhibition is inactive: -0.534%.

With `CCCCCOc1ccc(NP(C)(=O)Oc2ccc(Cl)cc2Cl)cc1` (configuration not stated), the inhibition was inactive: -6.12%.

Turning to `Cc1c([N+](=O)[O-])cc([N+](=O)[O-])c(Br)c1[N+](=O)[O-]`, the inhibition is inactive: 2.8%.

Consider `CCN(CC)CCCOC(=O)C(O)(c1ccccc1)C1CCCCC1` (configuration not stated), for which the inhibition is inactive: 3.52%.

`CCOC(=O)c1ccc(NP(C)(=O)Oc2ccc(F)cc2)cc1` (configuration not stated): the inhibition is inactive: -7.02%.

Take `COc1ccc(OP(C)(=O)Nc2ccc(SC(F)(F)F)cc2)cc1` (configuration not stated): the inhibition is inactive: 18.6%.

Turning to `COc1ccc2c(c1O)-c1c(O)c(OC)cc3c1[C@H](C2)[N+](C)(C)CC3.O=[N+]([O-])c1cc([N+](=O)[O-])c([O-])c([N+](=O)[O-])c1[O-]`, the inhibition was inactive: -0.216%.

Regarding `O=C(OC1CN2CCC1CC2)c1ccc([N+](=O)[O-])cc1` (configuration not stated), the inhibition is inactive: -2.23%.

Regarding `O=C(OCCN1CCN(CCOCc2ccccc2)CC1)C(O)(c1ccccc1)c1ccccc1`, the inhibition is inactive: 1.91%.

Turning to `CP(=O)(Nc1ccccc1F)Oc1ccccc1` (configuration not stated), the inhibition was inactive: -3.24%.

As to `CC(C)c1ccc(OP(C)(=O)Nc2ccc(SC(F)(F)F)cc2)cc1` (configuration not stated), the inhibition is inactive: 6.7%.

On to `O=[N+]([O-])c1cc([N+](=O)[O-])c(Nc2ccc(Cl)cc2)c([N+](=O)[O-])c1`, for which the inhibition was inactive: -20.7%.

`Cc1ccccc1NP(C)(=O)Nc1ccccc1C`: the inhibition was inactive: 1.93%.

In the case of `CP(=O)(Nc1ccc2c(c1)OCCO2)Oc1ccccc1` (configuration not stated), the inhibition was inactive: 18.6%.

Consider `CCOP(C)(=S)SCC(=O)NC(C)(CC)C(=O)O` (configuration not stated), for which the inhibition is inactive: -0.312%.

Consider `CP(=O)(Nc1ccc(SC(F)(F)F)cc1)Oc1ccc(F)cc1` (configuration not stated), for which the inhibition is inactive: 4.59%.

As to `Cc1c(C(c2ccc3c(c2)OCO3)c2c(C)n(C)n(-c3ccccc3)c2=O)c(=O)n(-c2ccccc2)n1C.O=[N+]([O-])c1cc([N+](=O)[O-])c(O)c([N+](=O)[O-])c1`, the inhibition was inactive: -0.0635%.

Consider `O=[N+]([O-])c1ccc(OP2(=O)COCCO2)cc1` (configuration not stated), for which the inhibition was inactive: -8.72%.

`O=[N+]([O-])c1cc([N+](=O)[O-])c(NCC2CCS(=O)(=O)C2)c([N+](=O)[O-])c1` (configuration not stated): the inhibition was inactive: 6.32%.

For `Cc1cc(-c2cccc3ccccc23)c(C)cn1.O=[N+]([O-])c1cc([N+](=O)[O-])c(O)c([N+](=O)[O-])c1`, the inhibition is inactive: -9.11%.

On to `CN(C)CCOC(=O)C(O)(c1ccccc1)C1CCCCC1` (configuration not stated), for which the inhibition was inactive: -13.4%.

Turning to `COc1ccc(NP(C)(=O)Oc2ccccc2OC)cc1` (configuration not stated), the inhibition was inactive: -0.793%.

As to `COc1ccc(OP(C)(=O)Nc2cccc(Br)c2)cc1` (configuration not stated), the inhibition was inactive: -0.542%.

Take `CCOC(=O)c1ccc(NP(C)(=O)Oc2ccc(Cl)cc2)cc1` (configuration not stated): the inhibition was inactive: -49%.

Take `CP(=O)(OC12CC3CC(CC(C3)C1)C2)OC12CC3CC(CC(C3)C1)C2`: the inhibition was inactive: -8.47%.

Turning to `CN(C)C(=O)c1c([N+](=O)[O-])cc([N+](=O)[O-])cc1[N+](=O)[O-]`, the inhibition is inactive: -0.186%.

Take `COc1ccccc1OP(C)(=O)Nc1ccccc1Br` (configuration not stated): the inhibition is inactive: -3.58%.

Consider `CC(C)(C)c1ccc(OP(C)(=O)O)cc1`, for which the inhibition was inactive: 2.99%.

Turning to `CP(=O)(Nc1ccc(Cl)cc1)Oc1ccc(F)cc1` (configuration not stated), the inhibition was inactive: -1.34%.

In the case of `O=C(OCCCN1CCCC1)C(O)(c1ccccc1)C1CCCCC1` (configuration not stated), the inhibition was inactive: -3.58%.

For `COc1ccccc1OP(C)(=O)Nc1c(C)n(C)n(-c2ccccc2)c1=O` (configuration not stated), the inhibition was inactive: -0.164%.

With `CCc1ccc(OP(C)(=O)Nc2cccnc2)cc1` (configuration not stated), the inhibition is inactive: -1.21%.

With `CP(=O)(Oc1ccccc1)N1CCOC1=O` (configuration not stated), the inhibition was inactive: -9.37%.

`COc1ccc(OP(C)(=O)Nc2ccc(Br)cc2)cc1` (configuration not stated): the inhibition is inactive: -13%.

On to `CCN(CC)CC(O)COC(=O)C(O)(c1ccccc1)C1CCCCC1` (configuration not stated), for which the inhibition is inactive: 1.42%.

Consider `COc1ccccc1OP(C)(=O)Nc1ccc(C)cc1C` (configuration not stated), for which the inhibition was inactive: -7.78%.

As for `CP(=O)(Nc1ccccn1)Oc1ccccc1` (configuration not stated), the inhibition is inactive: -6.63%.

Regarding `CCc1ccc(OP(C)(=O)O)cc1`, the inhibition was inactive: -3.42%.

As to `Cc1c(NP(C)(=O)Oc2ccc(C(C)C)cc2)c(=O)n(-c2ccccc2)n1C` (configuration not stated), the inhibition was inactive: -15.2%.

Consider `O=[N+]([O-])c1cc([N+](=O)[O-])c(Nc2ccccn2)c([N+](=O)[O-])c1`, for which the inhibition was inactive: -5.46%.

Turning to `COc1ccc(OP(C)(=O)Nc2ccccn2)cc1` (configuration not stated), the inhibition is inactive: -4.28%.

For the compound `CN(C)CCOC(=O)C(O)(c1ccccc1)C1CCCC1` (configuration not stated), the inhibition is inactive: -15.8%.

On to `COc1ccccc1OP(C)(=O)Nc1ccc(Br)cc1` (configuration not stated), for which the inhibition is inactive: -5.61%.

As to `CP(=O)(Nc1ccc(Cl)cc1Cl)Oc1ccccc1` (configuration not stated), the inhibition was inactive: -1.04%.

For the compound `CCCCCCCCCCCCCCCC1C[N+](C)(C)CCOP(C)(=O)O1` (configuration not stated), the inhibition was inactive: 28.7%.

As for `CP(=O)(OCCOc1ccccc1)OCCOc1ccccc1`, the inhibition was inactive: 4.09%.

With `COc1ccccc1OP(C)(=O)Nc1ccc(C)c(C)c1` (configuration not stated), the inhibition was inactive: 1.41%.

As to `COc1ccc(OP(C)(=O)Nc2ccccc2Br)cc1` (configuration not stated), the inhibition is inactive: -2.92%.

With `Cc1cc(C)cc(OP(C)(=O)Nc2cccc(C(F)(F)F)c2)c1` (configuration not stated), the inhibition was inactive: 4.38%.

For the compound `O=C1C(O)=C([N+](=O)[O-])C(=O)C(O)=C1[N+](=O)[O-]`, the inhibition was inactive: 5.73%.

As a reminder, the inhibition is the drop in the measured response relative to a control, in per cent.
